The structures appear in SMILES notation.

Sequences of proteins named here, by UniProt entry; tags and fusion partners are left off.
UniProt P08913, whole entry: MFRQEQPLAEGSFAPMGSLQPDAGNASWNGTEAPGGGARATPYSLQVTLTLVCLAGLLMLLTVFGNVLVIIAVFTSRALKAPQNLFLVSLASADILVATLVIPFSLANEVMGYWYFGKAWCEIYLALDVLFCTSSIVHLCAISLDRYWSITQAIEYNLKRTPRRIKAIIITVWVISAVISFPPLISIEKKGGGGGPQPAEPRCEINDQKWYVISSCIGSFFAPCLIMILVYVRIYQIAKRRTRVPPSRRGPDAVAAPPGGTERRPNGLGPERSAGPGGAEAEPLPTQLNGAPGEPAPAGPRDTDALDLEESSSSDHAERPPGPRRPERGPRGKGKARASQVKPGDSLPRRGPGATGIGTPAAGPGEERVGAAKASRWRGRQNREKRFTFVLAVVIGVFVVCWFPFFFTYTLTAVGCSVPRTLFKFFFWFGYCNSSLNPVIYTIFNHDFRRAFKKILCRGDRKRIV
UniProt P18089, whole entry: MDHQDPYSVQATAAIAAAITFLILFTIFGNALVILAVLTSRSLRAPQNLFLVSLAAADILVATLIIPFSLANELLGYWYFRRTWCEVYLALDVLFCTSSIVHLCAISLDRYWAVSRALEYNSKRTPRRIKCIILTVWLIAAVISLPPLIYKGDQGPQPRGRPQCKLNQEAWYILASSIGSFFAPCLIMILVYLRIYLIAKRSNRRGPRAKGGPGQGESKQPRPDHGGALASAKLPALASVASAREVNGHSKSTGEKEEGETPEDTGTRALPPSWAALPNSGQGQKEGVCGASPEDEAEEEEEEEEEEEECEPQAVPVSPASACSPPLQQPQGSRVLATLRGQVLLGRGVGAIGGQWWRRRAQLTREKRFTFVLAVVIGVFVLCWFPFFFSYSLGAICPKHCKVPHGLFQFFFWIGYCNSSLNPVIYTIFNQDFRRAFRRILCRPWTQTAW
UniProt P18825, whole entry: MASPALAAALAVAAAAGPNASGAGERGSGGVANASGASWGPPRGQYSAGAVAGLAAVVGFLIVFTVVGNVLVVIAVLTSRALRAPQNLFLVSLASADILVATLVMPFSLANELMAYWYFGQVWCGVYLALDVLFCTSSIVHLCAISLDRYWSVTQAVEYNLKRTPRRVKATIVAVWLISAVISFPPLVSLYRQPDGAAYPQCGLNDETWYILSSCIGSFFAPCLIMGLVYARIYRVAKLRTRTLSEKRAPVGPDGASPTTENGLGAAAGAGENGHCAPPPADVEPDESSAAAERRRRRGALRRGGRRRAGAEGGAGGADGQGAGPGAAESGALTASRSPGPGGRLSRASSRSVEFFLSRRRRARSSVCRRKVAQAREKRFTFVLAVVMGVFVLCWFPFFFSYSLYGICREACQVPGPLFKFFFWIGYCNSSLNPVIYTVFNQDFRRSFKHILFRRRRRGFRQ

Test [1] addresses human adrenergic-α2A receptor (Homo sapiens, UniProt P08913). Nature of the test: Radioligand binding experiment for α2A-adrenoceptor ([3H]-raulwolscine competition, CHO cell membranes). The following applies: [3H]raulwolscine 1 nM, membranes of CHO cells transfected with human α2A receptor. As for the experimental part: (§1) The interaction of the compounds of Formula (I) with α2C-adrenoceptor receptors was assessed in in vitro radioligand binding experiments. In general, a low concentration of a radioligand with a high binding affinity for a particular receptor or transporter is incubated with a sample of a tissue preparation enriched in a particular receptor or transporter or with a preparation of cells expressing cloned human receptors in a buffered medium. During the incubation, the radioligand binds to the receptor or transporter. When equilibrium of binding is reached, the receptor bound radioactivity is separated from the non-bound radioactivity, and the receptor- or transporter-bound activity is counted. The interaction of the test compounds with the receptor is assessed in competition binding experiments. Various concentrations of the test compound are added to the incubation mixture containing the receptor- or transporter preparation and the radioligand. The test compound in proportion to its binding affinity and its concentration inhibits binding of the radioligand. The radioligand used for […] receptor binding was [^3H]-raulwolscine.
(§2) CHO cells, stabile transfected with human adrenergic-α2A-, -α2B or α2C receptor cDNA, were cultured in Dulbecco's Modified Eagle's Medium (DMEM)/Nutrient mixture Ham's F12 (ratio 1:1)(Gibco, Gent-Belgium) supplemented with 10% heat inactivated fetal calf serum (Life Technologies, Merelbeke-Belgium) and antibiotics (100 IU/ml penicillin G, 100 μg/ml streptomycin sulphate, 110 μg/ml pyruvic acid and 100 μg/ml L-glutamine). One day before collection, cells were induced with 5 mM sodiumbutyrate. Upon 80-90% of confluence, cells were scraped in phosphate buffered saline without Ca^2+ and Mg^2+ and collected by centrifugation at 1500×g for 10 min. The cells were homogenised in Tris-HCl 50 mM using an Ultraturrax homogenizer and centrifuged for 10 min at 23,500×g. The pellet was washed once by resuspension and rehomogenization and the final pellet was resuspended in Tris-HCl, divided in 1 ml aliquots and stored at −70° C.
(§3) Membranes were thawed and re-homogenized in incubation buffer (glycylglycine 25 mM, pH 8.0). […] Filter-bound radioactivity was determined by scintillation counting in a Topcount (Packard, Meriden, CT) and results were expressed as counts per minute (cpm). Non-specific binding was determined in the presence of 1 μM oxymetazoline for hα2A- and hα2B receptors and 1 μM spiroxatrine for hα2C receptors.
(§4) Data from assays in the presence of compound were calculated as a percentage of total binding measured in the absence of test compound. […]

The target in test [2] is human adrenergic-α2B receptor (Homo sapiens, UniProt P18089). Nature of the test: Radioligand binding experiment for α2B-adrenoceptor ([3H]-raulwolscine competition, CHO cell membranes). The following applies: [3H]raulwolscine 1 nM, membranes of CHO cells transfected with human α2B receptor. The procedure: as §1, with “[^3H]-raulwolscine. […]” for “[^3H]-raulwolscine.”
as §3, §4

In test [3] the target is human adrenergic-α2C receptor (Homo sapiens, UniProt P18825). Briefly: Radioligand binding experiment for α2C-adrenoceptor ([3H]-raulwolscine competition, CHO cell membranes). The following applies: [3H]raulwolscine 1 nM, membranes of CHO cells transfected with human α2C receptor. As for the experimental part: as §1, §2, §3, §4

As for `O=c1n(-c2ccc(CN3CCCCC3)cc2)cnn1CCNCCOc1ccccc1`, the “pIC50 α2A” value in test [1] (tested form: HCl) was 7.5. For the same compound, the “pIC50 α2B” value in test [2] (tested form: HCl) is on record as 7.2. Also, the “pIC50 α2C” value in test [3] (tested form: HCl) was determined as 9.1.

For `CN1CCN(Cc2ccc(-n3cnn(CCNCCOc4ccccc4)c3=O)cc2)CC1`, the “pIC50 α2A” value in test [1] (tested form: HCl) worked out at 7.0. The “pIC50 α2B” value in test [2] (tested form: HCl) stood at 7.2. Also, the “pIC50 α2C” value in test [3] (tested form: HCl) came to 8.8.

For `CN1CCN(Cc2ccc(-n3cnn(CC4CCN(CCOc5ccccc5)CC4)c3=O)cc2)CC1`, the “pIC50 α2A” value in test [1] stood at 7.0. For the same compound, the “pIC50 α2B” value in test [2] came to 7.7. Also, the “pIC50 α2C” value in test [3] worked out at 8.3.

For the compound `Cc1ccc(CN2CCC(Cn3ncn(-c4ccc(CN5CCOCC5)cc4)c3=O)CC2)o1`, the “pIC50 α2A” value in test [1] is recorded as below 5. Moreover, the “pIC50 α2C” value in test [3] is 6.1.

The values are drawn from US20100029620A1, “SUBSTITUTED TRIAZOLINE, TETRAZOLONE AND IMIDAZOLONE DERIVATIVES FOR USE AS A MEDICINE” (JANSSEN PHARMACEUTICA N.V., priority 2004, published 2010).
